scFv variants of Ab-14 (light chain) against a SARS-CoV-2 spike peptide

Data: MIT Lincoln Laboratory AlphaSeq set, Engelhart et al. 2022, doi:10.1038/s41597-022-01779-4, as distributed in FLAb.

Target peptide (SARS-CoV-2 spike, HR2 region): PDVDLGDISGINAS

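The library (AAYL50) carries one to three amino acid substitutions per variant, with no insertions or deletions. The scFvs were displayed on barcoded MATa yeast, the peptide on MATalpha yeast. Pairs that bind mate more often; barcode pairs of the diploids are counted by sequencing. Each replicate has its own calibration line, from reference interactions of the BCL2 family. Each pool was mated in three replicate cultures.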

Parent scFv Ab-14: VH joined to VL by a (GGGGS)3 linker. Changes lie in the light chain CDRs alone.
VH: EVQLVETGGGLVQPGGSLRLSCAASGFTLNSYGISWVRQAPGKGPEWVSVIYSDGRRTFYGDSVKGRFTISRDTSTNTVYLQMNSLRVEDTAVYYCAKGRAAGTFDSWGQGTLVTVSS
VL: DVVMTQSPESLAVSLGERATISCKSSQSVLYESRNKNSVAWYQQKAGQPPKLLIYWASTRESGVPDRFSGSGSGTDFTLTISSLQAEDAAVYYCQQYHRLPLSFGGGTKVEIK

Substitutions are numbered in sequence along the VL above, starting at 1 (not Kabat).
Each Kd is an estimate from the mating assay, the geometric mean of the replicates in which the pair was seen; lower is stronger.
A pair that was not seen in any replicate is written "no signal"; this usually means weak binding, but a binder can also be missed.
In this assay the parent's reference entry averaged 4.4 nM; its copy inside this library read 48 nM.
Empty control strains, which show no peptide, gave a signal in 18% of pairings with library AAYL50; the median was 15 µM and 95% of these signals were weaker than 970 nM. No background was subtracted.

| Kd (apparent) | replicates with signal | changes |
|---|---|---|
| 120 µM | 1/3 | Q27T/W56P/E61I |
| 58 µM | 2/3 | K24C/R34F/S38Y |
| no signal | 0/3 | L30G/R60D/H98E |
| 4.5 nM | 3/3 | S28P/R99H |
| 17 µM | 2/3 | K24G/E32I/R60Q |
| 12 µM | 1/3 | L30G/R60G/Q96H |
| no signal | 0/3 | N35K/W56Q/P101W |
| 780 nM | 3/3 | V29W/S38R/S103N |
| 290 nM | 3/3 | S58C/Q96N/S103K |
| 1.6 µM | 2/3 | S62W/L102E/S103I |
| 58 nM | 3/3 | V29W/E32T |
| 86 nM | 3/3 | S33N/S103W |
| no signal | 0/3 | V39R/W56S/Q96K |
| no signal | 0/3 | A57I/Q95W/R99H |
| 12 nM | 3/3 | Q27A/N37G/R99L |
| 12 µM | 1/3 | K36H/A57Q |
| 880 nM | 1/3 | Q27F/V39Y/Q96P |
| no signal | 0/3 | S33Y/N35H/N37T |
| no signal | 0/3 | K24I/Q95N/S103G |
| 48 nM | 3/3 | K24Y/T59H/S103V |
| 40 µM | 1/3 | S28T/L30V/A40S |
| 95 nM | 3/3 | S25T/R60K/S103E |
| 34 µM | 1/3 | S38A/V39C/R60K |
| 2.1 µM | 3/3 | S25A/E61R/R99L |
| 560 µM | 1/3 | T59Y/L102E |
| 140 nM | 3/3 | L30P/E32W |
| 340 nM | 3/3 | S26C/T59F |
| no signal | 0/3 | S38I/S58P/Y97Q |
| 790 nM | 1/3 | Q27M/S58F/S62C |
| 13 nM | 3/3 | Q27Y/Y31M/R99C |
| 5.2 nM | 3/3 | R34Y/Y97T/L100K |
| no signal | 0/3 | S25H/S58Y/H98F |
| 74 nM | 3/3 | S25Q/S33F/Y97W |
| 11 nM | 3/3 | V29D/A57M/S62P |
| no signal | 0/3 | L30A/K36D/R60E |
| 33 nM | 3/3 | W56Q/T59L/Q96M |
| 210 µM | 1/3 | K36V/Q95P/Y97H |
| 11 nM | 3/3 | S28Q/W56M/P101M |
| no signal | 0/3 | S38H/W56V/R60K |
| no signal | 0/3 | W56P/E61Y/P101N |
| 1.4 µM | 3/3 | L30D/W56V/S58D |
| 5.5 µM | 1/3 | N35T/S38E/S58F |
| no signal | 0/3 | N37Y/V39N/Q95R |
| 910 nM | 3/3 | S26W/L30H/R34C |
| 1.1 µM | 1/3 | L30G/N35D/K36C |
| 1.8 µM | 3/3 | V29Y/T59W/H98T |
| 220 µM | 2/3 | Q27D/V29H/L30H |
| no signal | 0/3 | A57P/P101F |
| no signal | 0/3 | S62D/Q96R/P101H |
| no signal | 0/3 | S33W/W56P/T59S |
| no signal | 0/3 | S58N/Y97Q/L102H |
| 14 nM | 3/3 | S26G/A57V/H98A |
| 86 nM | 3/3 | S25M/W56T |
| 7.6 µM | 3/3 | V39A/W56K/S58D |
| 36 nM | 3/3 | E32C/W56H/T59D |
| 1.3 µM | 1/3 | E32W/E61S/S103N |
| no signal | 0/3 | A40F/T59Q/E61K |

A selection of 4 entries from above:

| changes | Kd (apparent) | replicates with signal |
|---|---|---|
| V29W/E32T | 58 nM | 3/3 |
| S58N/Y97Q/L102H | no signal | 0/3 |
| S25T/R60K/S103E | 95 nM | 3/3 |
| Q27Y/Y31M/R99C | 13 nM | 3/3 |